In article PMC13441969, “Zero-shot design of drug-binding proteins via neural iterative selection−expansion” (Nature, 2026):

Experiment: Fluorescence polarization/anisotropy of exatecan titrated with protein
Conditions: [exatecan] = 50 nM; PBS pH 7.4, 0.1% w/v PEG-8000; single-site (1:1) binding model

human serum albumin [HSA]
Kd: 43 ± 3 µM
